We go through 1 compound from BindingDB's records for doi:10.1021/acs.jmedchem.0c00182 (Inception Therapeutics, 2020).

Assay [1] can be described thus: Binding affinity to full length recombinant eIF4A1 (unknown origin) assessed as induction ternary complex formation in presence of AGAGAG by measuring Kd for AGAGAG + ATP complex formation SPR assay (Rvb = 8 +/- 0.9 microM). For orientation: Surface plasmon resonance follows binding to a sensor surface in real time, without labels.
Assay [2] can be described thus: Binding affinity to full length recombinant eIF4A1 (unknown origin) assessed as induction ternary complex formation in presence of AGAGAG by measuring Kd for GGCGGC + ATP complex formation SPR assay (Rvb = 8 +/- 0.3 microM).
The nature of assay [3]: Binding affinity to full length recombinant eIF4A1 (unknown origin) assessed as induction ternary complex formation in presence of AGAGAG by measuring Kd for CCGCCG + ATP complex formation SPR assay (Rvb = 3.27 +/- 0.06 microM).
The nature of assay [4]: Binding affinity to full length recombinant eIF4A1 (unknown origin) assessed as induction ternary complex formation in presence of AGAGAG by measuring Kd for CAACAA + ATP complex formation SPR assay (Rvb = 3.78 +/- 0.05 microM).

Consider `COc1cc2c(c(OC)n1)[C@]1(O)[C@H](O)[C@H](CN(C)C)[C@@H](c3ccccc3)[C@]1(c1ccc(C#N)cc1)O2` [Zotatifin], for which the Kd in assay [1] amounted to 21 nM; in assay [2] it was 3190 nM; in assay [3], 9600 nM; in assay [4], 2430 nM.

Broadly, the Kd is the concentration at which binding is half-saturated.
